Earlier results on one substance are cited in US20260144817A1, “IN[…] THERAPY IN BCG-EXPOSED PATIENTS” (priority 2022, published 2026).

For this data set the following is noted: patients; printed 'as high as'.

cyclophosphamide and fludarabine: the toxicity is recorded as 30-40%.
